Data taken from patent US10526320B2, “Pyrrolidine derivatives as PPAR agonists” (GUANGDONG RAYNOVENT BIOTECH CO., LTD., priority 2016, dated 2020).

The chains behind the UniProt entries cited, without tags or fusion partners. Where a name states a change or a piece, a line headed by the entry shows the natural chain unless it says otherwise.
UniProt P37231: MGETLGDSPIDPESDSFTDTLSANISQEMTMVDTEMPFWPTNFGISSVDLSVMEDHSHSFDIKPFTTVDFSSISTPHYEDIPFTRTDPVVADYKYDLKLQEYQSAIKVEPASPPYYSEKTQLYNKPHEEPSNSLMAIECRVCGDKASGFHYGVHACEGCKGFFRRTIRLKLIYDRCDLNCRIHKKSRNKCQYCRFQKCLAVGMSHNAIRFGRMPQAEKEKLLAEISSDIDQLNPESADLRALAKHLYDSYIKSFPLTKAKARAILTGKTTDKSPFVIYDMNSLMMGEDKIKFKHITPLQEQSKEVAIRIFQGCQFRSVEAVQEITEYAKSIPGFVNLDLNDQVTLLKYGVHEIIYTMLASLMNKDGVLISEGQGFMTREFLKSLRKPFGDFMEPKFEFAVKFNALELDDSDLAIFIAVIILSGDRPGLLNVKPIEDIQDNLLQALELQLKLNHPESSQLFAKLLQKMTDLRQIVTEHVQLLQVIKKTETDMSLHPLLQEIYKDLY

What was measured:
PPAR Alpha = target: T1, PPAR Alpha (Homo sapiens, UniProt Q07869); assay: PathHunter NHR protein interaction / nuclear translocation agonist test, PPAR Alpha; format: cell-based; conditions: for Emax: read-out: PPAR Alpha Maximum Activation Response %
T1 sequence (Q07869 1-468): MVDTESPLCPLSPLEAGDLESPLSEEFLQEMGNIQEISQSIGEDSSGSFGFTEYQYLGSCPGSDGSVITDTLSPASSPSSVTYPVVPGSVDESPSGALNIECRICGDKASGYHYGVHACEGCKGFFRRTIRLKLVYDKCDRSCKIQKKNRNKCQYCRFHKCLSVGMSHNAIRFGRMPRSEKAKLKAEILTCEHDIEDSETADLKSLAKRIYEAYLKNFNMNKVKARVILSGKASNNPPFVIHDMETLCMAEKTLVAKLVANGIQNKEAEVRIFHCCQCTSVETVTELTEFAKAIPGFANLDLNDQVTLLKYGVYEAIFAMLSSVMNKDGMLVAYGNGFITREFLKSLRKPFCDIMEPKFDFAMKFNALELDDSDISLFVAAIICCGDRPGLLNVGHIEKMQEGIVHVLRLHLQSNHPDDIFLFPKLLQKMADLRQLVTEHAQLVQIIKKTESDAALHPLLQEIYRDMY

PPAR Gamma = PPAR Gamma (Homo sapiens, UniProt P37231); assay: PathHunter NHR protein interaction / nuclear translocation agonist test, PPAR Gamma; format: cell-based; conditions: for Emax: read-out: PPAR Gamma Maximum Activation Response %

Compound | PPAR Alpha Maximum Activation Response % (PPAR Alpha) | PPAR Gamma Maximum Activation Response % (PPAR Gamma) | Emax (PPAR Alpha) [%] | Emax (PPAR Gamma) [%]
Cc1cc(CCC2CN(C(=O)Oc3ccccc3)CC2C(=O)c2ccc(Cl)cc2)cc(C)c1OC(C)(C)C(=O)O (single isomer, unassigned) [Compound 66] | I (key: 100% ≥ I ≥ 80%; 80% ≥ II ≥ 50%; III < 50%) | I (key: 100% ≥ I ≥ 80%; 80% ≥ II ≥ 50%; III < 50%) |  | 
CSc1ccc(C(=O)C2CN(C(=O)Oc3ccccc3)CC2Cc2cccc(OC(C)(C)C(=O)O)c2)cc1 (single isomer, unassigned) [Compound 50] | III (key: 100% ≥ I ≥ 80%; 80% ≥ II ≥ 50%; III < 50%) |  |  | 
CSc1ccc(C(=O)C2CN(C(=O)Oc3ccccc3)CC2Cc2cc(C)c(OC(C)(C)C(=O)O)c(C)c2)cc1 (stereo not shown) [Compound 26] |  |  | 80 to 100 | 80 to 100
CSc1ccc(C(=O)[C@@H]2CN(C(=O)Oc3ccccc3)C[C@H]2CCc2cc(C)c(OC(C)(C)C(=O)O)c(C)c2)cc1 (single isomer, unassigned) [Compound 51] |  |  | 80 to 100 | 80 to 100
CSc1ccc(C(=O)C2CN(C(=O)Oc3ccccc3)CC2c2cc(C)c(OC(C)(C)C(=O)O)c(C)c2)cc1 (single isomer, unassigned) [Compound 9] |  |  | 80 to 100 | 
CSc1ccc(C(=O)C2CN(C(=O)Oc3ccccc3)CC2c2cccc(OC(C)(C)C(=O)O)c2)cc1 (stereo not shown) [Compound 24] |  |  | 80 to 100 | 
CSc1ccc(C(=O)C2CN(C(=O)Oc3ccccc3)CC2Cc2cccc(OC(C)(C)C(=O)O)c2)cc1 (single isomer, unassigned) [Compound 49] |  |  | 50 to 80 | 50 to 80
Cc1cc(CCC2CN(C(=O)Oc3ccccc3)CC2C(=O)c2ccc(Cl)cc2)cc(C)c1OC(C)(C)C(=O)O (single isomer, unassigned) [Compound 65] |  |  | 80 to 100 | 80 to 100
